Laboratory results as given in patent US20260091008A1, “DOUBLE TARGETED CONSTRUCTS TO AFFECT TUMOR KILL” (Cornell University, priority 2016, published 2026).

By UniProt entry, the sequences of proteins in these tests, tags left out. Residues count along the entry.
UniProt P02768, 25-609 limits assumed: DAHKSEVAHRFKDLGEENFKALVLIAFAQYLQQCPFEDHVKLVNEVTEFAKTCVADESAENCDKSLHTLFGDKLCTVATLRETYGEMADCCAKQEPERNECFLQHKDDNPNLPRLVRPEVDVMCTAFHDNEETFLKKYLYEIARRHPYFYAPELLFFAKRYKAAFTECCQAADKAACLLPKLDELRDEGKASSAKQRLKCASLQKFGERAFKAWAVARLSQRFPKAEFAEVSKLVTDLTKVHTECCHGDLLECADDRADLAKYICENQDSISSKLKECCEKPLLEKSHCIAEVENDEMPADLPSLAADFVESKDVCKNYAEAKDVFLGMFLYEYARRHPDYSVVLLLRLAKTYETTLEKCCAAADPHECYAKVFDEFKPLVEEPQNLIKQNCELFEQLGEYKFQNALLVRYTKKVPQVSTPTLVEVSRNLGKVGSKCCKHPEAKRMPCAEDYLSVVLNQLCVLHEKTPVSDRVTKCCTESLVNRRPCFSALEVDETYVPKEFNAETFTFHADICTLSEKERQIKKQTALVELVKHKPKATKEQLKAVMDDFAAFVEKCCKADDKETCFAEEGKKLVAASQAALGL

Key:
[1] = system: LNCaP cell xenografts; test: Tissue distribution of 131I-labeled compounds in mice bearing LNCaP xenografts; format: in vivo; conditions: for Blood t1/2 for the distribution phase / Blood t1/2 for the elimination phase: bi-exponential dual compartment fit of blood data
[2] = target: HSA (Homo sapiens, UniProt P02768); test: HSA affinity determination on immobilized-HSA microcolumns; conditions: read-out: Kd for HSA; HSA microcolumn, phosphate buffer pH 7.4, room temperature

How did the “Blood t1/2 for the distribution phase” value [1] turn out when `O=C(O)CC[C@H](NC(=O)N[C@@H](CCCNC(=O)CCCc1ccc([131I])cc1)C(=O)O)C(=O)O` was run?
Its value is 3.85 h.

What about the “Blood t1/2 for the elimination phase” value [1] of the same molecule?
The value was 3,300 h.

And the Blood activity ([1]; blood, 1 h post injection)?
Its Blood activity is 16.20±4.68 % ID/g.

What about the Blood activity ([1]; blood, 48 h post injection) of the same molecule?
The Blood activity was 12.71±1.55 % ID/g.

And the Kidney uptake ([1]; 1 h post injection)?
The Kidney uptake was 16.21±0.97 % ID/g.

And the Kidney uptake ([1]; 24 h post injection)?
The Kidney uptake was 22.26±2.48 % ID/g.

What about the Lungs uptake ([1]; lungs, 1 h post injection) of the same molecule?
The Lungs uptake was 6.12±0.95 % ID/g.

And the Tumor uptake ([1]; time not stated, stable over the course of the 48 h)?
The Tumor uptake was 4.81±1.27 % ID/g.

And the Kd [2]?
The Kd was 2.1 µM.

How did the “Tumor-to-kidney (T/K) ratio” value ([1]; 12 h post injection) turn out when `O=C(O)CC[C@H](NC(=O)N[C@@H](CCCNC(=O)CCc1ccc([131I])cc1)C(=O)O)C(=O)O` was run?
Its value is over 1.

And the “Blood t1/2 for the distribution phase” value [1]?
The value was 2.1 h.

And the “Blood t1/2 for the elimination phase” value [1]?
The value was 17.3 h.

What about the “Blood activity (in words)” value ([1]; blood, 12 h post injection) of the same molecule?
Its value is “negligible activity”.

What about the Kidney uptake ([1]; 1 h post injection) of the same molecule?
Its Kidney uptake is 52.18±5.35 % ID/g.

And the Kidney uptake ([1]; 24 h post injection)?
The Kidney uptake was 2.27±1.41 % ID/g.

And the Liver uptake ([1]; liver, 1 h post injection)?
Its Liver uptake is 12.46±1.63 % ID/g.

And the Small intestine uptake ([1]; small intestine, 1 h post injection)?
The Small intestine uptake was 13.09±2.98 % ID/g.

What about the Tumor uptake ([1]; 1 h post injection) of the same molecule?
The Tumor uptake was 7.20±0.10 % ID/g.

What about the Tumor uptake ([1]; 6 h post injection) of the same molecule?
The Tumor uptake was 3.35±1.70 % ID/g.

What about the Kd [2] of the same molecule?
The Kd was 22.9 µM.
